Reference: PubChem BioAssay AID1273 (Columbia University Molecular Screening Center, 2008)
The list shows a part of the results, in another mix than the full data. Some results for these compounds are left out of this collection, so the calls shown say nothing about other tests. Calls of active or inactive are those of the source.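 How the source made its calls: active means inhibition above the mean plus 3 SD, with well images judged a real hit on visual review (cut at about 60% in these data, passing the limit was not always enough); inconclusive means inhibition over the cutoff but images rejected on review; inactive means inhibition not above the cutoff.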

Assay: inhibitors of insulin promoter-driven GFP, primary screen, imaging, TRM-6 cells (human fetal islet line), eGFP reporter, cell count (AID 1273)
Conditions: at 2 µM, stronger effect = higher value, reporter expression induced with tamoxifen

Structure (SMILES) | inhibition
O=C(OC1CN2CCC1CC2)C(CO)(c1ccccc1)c1ccccc1 (stereo not given) | inactive: -2.78%
CN(C)c1cccc(C(=O)NCC2(N(C)C)CCCCC2)c1 | inactive: 14.3%
CN(C)C1CCCC1OC(=O)C(O)(c1ccccc1)c1ccccc1 (stereo not given) | inactive: 11.8%
CCN1CCCC(OC(=O)C2(O)c3ccccc3C=Cc3ccccc32)C1 (stereo not given) | inactive: -115%
CC(C)N1C(=O)CC2(CCN(CCOC(=O)C(O)(c3ccccc3)c3ccccc3)CC2)C1=O | inactive: -3.23%
